The subject of the series is MT-4 cells. The experiment in a line: Cytotoxicity in MT-4 cells (MTS/PES). The following applies: 50% reduction in cell viability, 5 days.

On to dextran sulfate-5000 [DS-5000], for which the CC50 is over 20 µM.

The values above are taken from paper PMC9959982 (International Journal of Molecular Sciences, 2023).
